Experimental findings from PubChem BioAssay (Tox21) are described below.

By UniProt entry, the sequences of proteins in these tests, tags left out.
UniProt P30968, whole entry: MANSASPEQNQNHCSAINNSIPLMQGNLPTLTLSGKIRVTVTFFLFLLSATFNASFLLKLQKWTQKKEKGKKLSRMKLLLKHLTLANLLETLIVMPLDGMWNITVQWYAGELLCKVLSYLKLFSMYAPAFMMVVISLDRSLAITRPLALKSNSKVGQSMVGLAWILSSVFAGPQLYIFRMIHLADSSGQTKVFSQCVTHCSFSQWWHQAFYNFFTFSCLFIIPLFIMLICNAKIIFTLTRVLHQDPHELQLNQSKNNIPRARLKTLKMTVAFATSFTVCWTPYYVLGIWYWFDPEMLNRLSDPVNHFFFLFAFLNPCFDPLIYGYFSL

Where “and” joins values, the source holds several entries; their conditions need not be identical. Equal values may be shown once. The entries are a selection whose mix differs from that of the whole data set. Calls of active or inactive are those of the source. The call rests on the fitted dose curve.
On the % scale 0 is the no-effect control and ±100 the full control effect.

One experiment addresses Gonadotropin-releasing hormone receptor (Homo sapiens) (UniProt P30968). Briefly: Human gonadotropin-releasing hormone receptor (GnRHR) small molecule agonists, calcium flux assay in GnRHR-HEK293 cells (AID 1920063). Further: nearly all actives have a fitted effect of over 35% in size. To be noted: calcium flux fluorescence, agonist mode, at 26.4 µM (top of the series), active compounds read high. The text has this: National Center for Advancing Translational Sciences [NCATS]
Division of Preclinical Innovation [DPI]
U.S. Environmental Protection Agency [EPA]
National Institutes of Environmental Health Sciences [NIEHS]
National Toxicology Program [NTP]
U.S. Food and Drug Administration [FDA]
Gonadotropin-releasing hormone receptor (GnRHR) is a G-protein-coupled receptor (GPCR) and acts (through phospholipase C) to increase intracellular inositol trisphosphate and then release intracellular calcium stores. Cell-based GnRHR-Hek293 calcium influx assay is using HEK293 cells that have been genetically engineered to express the human GnRHR, which activity can be measured by calcium signaling. A compound/drug can activate (agonist) GnRHR that can be monitored by levels of intracellular calcium.
GnRHR-HEK293 cells developed by Codex Corp contain human GnRHR reporter gene, which was stably integrated into HEK 293 cells. The compound activation can be detected by fluorescence intensity via calcium flux assay. This cell line has been used to screen the Tox21 10K compound library to identify GnRHR agonists.
GnRHR-Hek293 cells were dispensed at 1500cells/4uL/well in 1536-well black wall/clear bottom plates using a multidrop dispenser. After the assay plates were incubated at a 37 C/5% CO2 incubator for 18 hours, 4 uL of Calcium Dye Solution was added to each well. The plates were incubated at 37 C for 1 hour. For agonist mode, 23 nL of compounds dissolved in DMSO, positive controls or DMSO only was transferred to the assay plate by a pin tool station. The fluorescence intensity in the plates was measured using FDSS 7000EX kinetic plate reader with a filter set of Ex/Em=480/540 for 3 min at 1 sec intervals. Each test compound was measured at 15 concentrations and in triplicates.
In the case of `OCCSCCO`, the activity change was inactive: -0.0855%.

The same experiment, now with this note: calcium flux fluorescence, agonist mode, at 57.6 µM (top of the series), active compounds read high.
For the compound `OCCSCCO`, the activity change is inactive: 0.705%.

Still in this experiment, the particulars now being: calcium flux fluorescence, agonist mode, active compounds read high; at 57.6 µM (top of the series) unless noted.
With `CCOP(=O)(CC)OCC`, the activity change is inactive: 0.743%.

For `CP(=O)(O)OCCC[Si](O)(O)O`, the activity change is inactive: 0.708%.

On to `O=[N+]([O-])OCC(CO[N+](=O)[O-])(CO[N+](=O)[O-])CO[N+](=O)[O-]`, for which the activity change was inactive: 2.25%. The same measure, in the same setting: under `N=C(N)N[N+](=O)[O-]` stands inactive: -0.238%. Still for that read-out and setting: next, `CC(C)N(CCO)C(C)C`: inactive: -0.424%. On the same count and under the same terms, next, `[NH4+].[O-][Cl+3]([O-])([O-])[O-]`: inactive: -0.663% and inactive: 1.35%. For `CC(C)OP(C)(=O)OC(C)C`, the activity change was inactive: 0.771% and inactive: 0.691%. `CN(C)CCCl`: the activity change was inactive: -0.546%.

On to `Nc1cc([N+](=O)[O-])cc([N+](=O)[O-])c1O`, for which the activity change was inactive: 4.72%. Still for that read-out and setting: next, `CCOP(=O)(CC)Oc1ccc([N+](=O)[O-])cc1` (configuration not stated): inactive: 0.568% [at 26.4 µM]; `COc1ccc([N+](=O)[O-])cc1[N+](=O)[O-]`: inactive: -0.161%; `CCN(CC)CCCl`: inactive: 0.153%. Take `COP(C)(=O)OC`: the activity change is inactive: 0.303% and inactive: -1.71%. Still for that read-out and setting: under `O=[N+]([O-])[O-].[NH4+]` stands inactive: -0.269% and inactive: -0.212%; under `O=[N+]([O-])c1cccc([N+](=O)[O-])c1`, inactive: -2.9%; under `C/C1=C2N=C(/C=C3N=C(/C(C)=C4\[N-][C@@](C)([C@@H]5N=C1[C@](C)(CCC(=O)NC[C@@H](C)OP(=O)([O-])O[C@H]1[C@@H](O)[C@@H](n6cnc7cc(C)c(C)cc76)O[C@@H]1CO)[C@H]5CC(N)=O)[C@@](C)(CC(N)=O)[C@@H]4CCC(N)=O)[C@@](C)(CC(N)=O)[C@@H]\3CCC(N)=O)C(C)(C)[C@@H]/2CCC(N)=O.[C-]#N.[Co+3]`, inactive: -0.119% [at 26.4 µM]. In the case of `Cc1ccc([N+](=O)[O-])cc1[N+](=O)[O-]`, the activity change is inactive: 1.64% and inactive: -0.557%. On the same count and under the same terms, next, `N#CBr`: inactive: 0.409%; `Cc1c([N+](=O)[O-])cccc1[N+](=O)[O-]`: inactive: -0.901% and inactive: -0.819%; `Cc1cccc([N+](=O)[O-])c1[N+](=O)[O-]`: inactive: -0.969% [at 26.4 µM].
